Laboratory results: US7951979B2, “2,4,6-trisubstituted phenols having anesthetic properties” (University of Iowa Research Foundation, priority 2006, dated 2011)

System: rats
Test: i.v. injection into the lateral tail vein of rats, loss of righting reflex / anesthesia
Settings: Rat 2 (agitated prior to injection); approximately 15 mg/kg i.v. (lateral tail vein), 16% Cremophor EL in water

In the case of `CC(C)c1cc(C(O)C(F)(F)F)cc(C(C)C)c1O` (stereo not shown) [Compound 1, 2,6-diisopropyl-4-(2,2,2-trifluoro-1-hydroxy-ethyl)-phenol], the “time post-injection at which the rat appeared normal” value was “about 4.75 minutes”.
